Data on two molecules can be found in ChEMBL document CHEMBL1142820, “Identification of potent and selective MMP-13 inhibitors” (Bioorg Med Chem Lett, 2005).

The chains behind the UniProt entries cited, without tags or fusion partners. Where a name states a change or a piece, a line headed by the entry shows the natural chain unless it says otherwise.
UniProt P08253: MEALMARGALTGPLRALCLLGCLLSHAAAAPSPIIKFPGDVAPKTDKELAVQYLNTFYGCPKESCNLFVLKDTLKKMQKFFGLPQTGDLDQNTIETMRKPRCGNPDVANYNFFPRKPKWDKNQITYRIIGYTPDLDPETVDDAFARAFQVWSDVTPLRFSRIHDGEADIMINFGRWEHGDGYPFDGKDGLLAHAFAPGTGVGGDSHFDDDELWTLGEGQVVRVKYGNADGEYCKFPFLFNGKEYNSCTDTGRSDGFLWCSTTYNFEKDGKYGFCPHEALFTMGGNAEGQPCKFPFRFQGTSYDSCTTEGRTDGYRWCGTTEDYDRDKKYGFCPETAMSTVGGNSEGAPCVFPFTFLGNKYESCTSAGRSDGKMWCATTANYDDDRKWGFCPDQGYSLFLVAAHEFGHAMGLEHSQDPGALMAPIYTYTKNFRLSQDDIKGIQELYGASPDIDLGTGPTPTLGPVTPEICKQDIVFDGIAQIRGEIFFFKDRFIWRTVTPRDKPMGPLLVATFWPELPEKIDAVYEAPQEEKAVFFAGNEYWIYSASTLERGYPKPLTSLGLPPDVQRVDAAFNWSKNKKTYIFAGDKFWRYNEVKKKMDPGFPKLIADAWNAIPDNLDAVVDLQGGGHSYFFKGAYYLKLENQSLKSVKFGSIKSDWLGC

The target of one assay is Collagenase 3 (Bos taurus, UniProt O77656). As to the kind of experiment: Inhibitory concentration against MMP-13 of bovine articular cartilage explants.
The target of assay [1] is 72 kDa type IV collagenase (Homo sapiens, UniProt P08253). As to the kind of experiment: Inhibitory concentration against MMP-2. In outline: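 Continuous fluorescence assay of commercially sourced enzyme cleaving a synthetic peptide whose fluorophore (7-methoxycoumarin or 2-aminobenzoyl) is quenched by 2,4-dinitrophenyl. Signal is read at the fluorophore's excitation/emission wavelengths. MMP-2 was preactivated with APMA. MMP-3 used substrate Mca-PKPLAL-Dpa-AR-NH2. Substrate level relative to Km was set so that IC50 stays within 2-fold of Ki (Cheng-Prusoff).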

Regarding `CC(C)[C@H](NS(=O)(=O)c1ccc(-c2ccc(NC(=O)c3cc4ccccc4o3)cc2)cc1)C(=O)O`, half-maximal inhibition against Collagenase 3 (IC50) required 1.3 nM.

Take `COc1cccc(C(=O)Nc2ccc(-c3ccc(S(=O)(=O)N[C@H](C(=O)O)C(C)C)cc3)cc2)c1`: the IC50 in assay [1] came out at 14 nM; against Collagenase 3 it was 13.7 nM.

One may read the IC50 as the concentration at which inhibition is half-maximal. A lower IC50 goes with higher potency.
